Sequences of proteins named here, by UniProt entry; tags and fusion partners are left off.
UniProt P51681, whole entry: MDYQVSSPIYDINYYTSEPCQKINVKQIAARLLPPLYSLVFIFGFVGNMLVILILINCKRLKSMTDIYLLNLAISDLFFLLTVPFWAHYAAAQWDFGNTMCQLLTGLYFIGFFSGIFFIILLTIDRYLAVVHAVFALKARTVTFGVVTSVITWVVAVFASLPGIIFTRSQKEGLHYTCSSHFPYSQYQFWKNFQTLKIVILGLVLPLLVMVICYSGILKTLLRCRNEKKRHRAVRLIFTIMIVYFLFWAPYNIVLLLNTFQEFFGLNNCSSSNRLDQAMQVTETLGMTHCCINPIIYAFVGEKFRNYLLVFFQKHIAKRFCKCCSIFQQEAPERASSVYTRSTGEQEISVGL

The experiment concerns the target recombinant human CCR5 receptor (Homo sapiens, UniProt P51681). As to the kind of experiment: in vitro radioligand binding assay: inhibition of iodinated MIP-1α binding to CCR5 membranes (scintillation proximity). The conditions noted are these: displacement of 0.1 nM iodinated MIP-1α; membranes from Chinese hamster ovary cells expressing recombinant human CCR5; average if tested more than once. How it is done: The ability of compounds to inhibit the binding of MIP-1α was assessed by an in vitro radioligand binding assay. Membranes were prepared from Chinese hamster ovary cells which expressed the recombinant human CCR5 receptor. These membranes were incubated with 0.1 nM iodinated MIP-1α, scintillation proximity beads and various concentrations of the compounds of the invention in 96-well plates. The amount of iodinated MIP-1α bound to the receptor was determined by scintillation counting. Competition curves were obtained for compounds and the concentration of compound which displaced 50% of bound iodinated MIP-1α was calculated (IC50).
In Table VI the results are presented as Pic50 values. A Pic50 value is the negative log (to base 10) of the IC50 result, so an IC50 of 1 μM (that is 1×10^−6M) gives a Pic50 of 6. If a compound was tested more than once then the data below is an average of the probative tests results.
A general note: In a scintillation proximity assay essentially only radioactivity close to the scintillant gives light.
As for `CS(=O)(=O)c1ccc(S(=O)(=O)NCC2CCN(CC[C@@H](c3cc(F)cc(F)c3)C3CCN(S(C)(=O)=O)CC3)CC2)cc1`, the Pic50 is given as 9.3.

Take `COc1ccc(S(=O)(=O)NCC2CCN(CC[C@@H](c3cc(F)cc(F)c3)C3CCN(S(C)(=O)=O)CC3)CC2)cc1OC`: the Pic50 amounted to 8.3.

Consider `CS(=O)(=O)c1ccc([C@@H](CCN2CCC(CNS(=O)(=O)c3ccc(Cl)cc3)CC2)c2cc(F)cc(F)c2)cc1`, for which the Pic50 was determined as 7.7.

`CS(=O)(=O)c1ccc([C@@H](CCN2CCC(CNS(=O)(=O)c3ccc(C#N)cc3)CC2)c2cc(F)cc(F)c2)cc1`: the Pic50 is recorded as 8.0.

Consider `CS(=O)(=O)c1ccc([C@@H](CCN2CCC(CCNS(=O)(=O)c3ccc(S(C)(=O)=O)cc3)CC2)c2cc(F)cc(F)c2)cc1`, for which the Pic50 was determined as 6.8.

With `CS(=O)(=O)c1ccc([C@@H](CCN2CCC(CNS(=O)(=O)c3ccccc3F)CC2)c2cc(F)cc(F)c2)cc1`, the Pic50 is given as 6.8.

Source of the values: patent US20070112022A1, “Piperidine derivatives as ccr5 receptor modulators” (priority 2003, published 2007).
